This note sets out measurements from patent US20020187514A1 (priority 1999, published 2002).

This experiment deals with Galanin. The experiment can be described thus: Galanin; [I125]Galanin. The experiment is classed as binding. The conditions noted are these: reference compound, QA/QC; read-out: Ref Kj.

pKi: −log10 of the molar value.

With Galanin (Porcine), the pKi was 9.71.
